We go through 1 compound from ChEMBL document CHEMBL3739296, “Discovery of anilinopyrimidine-based naphthamide derivatives as potent VEGFR-2 inhibitors” (Medchemcomm, 2015).

The chains behind the UniProt entries cited, without tags or fusion partners.
UniProt Q15303, whole entry, looked up: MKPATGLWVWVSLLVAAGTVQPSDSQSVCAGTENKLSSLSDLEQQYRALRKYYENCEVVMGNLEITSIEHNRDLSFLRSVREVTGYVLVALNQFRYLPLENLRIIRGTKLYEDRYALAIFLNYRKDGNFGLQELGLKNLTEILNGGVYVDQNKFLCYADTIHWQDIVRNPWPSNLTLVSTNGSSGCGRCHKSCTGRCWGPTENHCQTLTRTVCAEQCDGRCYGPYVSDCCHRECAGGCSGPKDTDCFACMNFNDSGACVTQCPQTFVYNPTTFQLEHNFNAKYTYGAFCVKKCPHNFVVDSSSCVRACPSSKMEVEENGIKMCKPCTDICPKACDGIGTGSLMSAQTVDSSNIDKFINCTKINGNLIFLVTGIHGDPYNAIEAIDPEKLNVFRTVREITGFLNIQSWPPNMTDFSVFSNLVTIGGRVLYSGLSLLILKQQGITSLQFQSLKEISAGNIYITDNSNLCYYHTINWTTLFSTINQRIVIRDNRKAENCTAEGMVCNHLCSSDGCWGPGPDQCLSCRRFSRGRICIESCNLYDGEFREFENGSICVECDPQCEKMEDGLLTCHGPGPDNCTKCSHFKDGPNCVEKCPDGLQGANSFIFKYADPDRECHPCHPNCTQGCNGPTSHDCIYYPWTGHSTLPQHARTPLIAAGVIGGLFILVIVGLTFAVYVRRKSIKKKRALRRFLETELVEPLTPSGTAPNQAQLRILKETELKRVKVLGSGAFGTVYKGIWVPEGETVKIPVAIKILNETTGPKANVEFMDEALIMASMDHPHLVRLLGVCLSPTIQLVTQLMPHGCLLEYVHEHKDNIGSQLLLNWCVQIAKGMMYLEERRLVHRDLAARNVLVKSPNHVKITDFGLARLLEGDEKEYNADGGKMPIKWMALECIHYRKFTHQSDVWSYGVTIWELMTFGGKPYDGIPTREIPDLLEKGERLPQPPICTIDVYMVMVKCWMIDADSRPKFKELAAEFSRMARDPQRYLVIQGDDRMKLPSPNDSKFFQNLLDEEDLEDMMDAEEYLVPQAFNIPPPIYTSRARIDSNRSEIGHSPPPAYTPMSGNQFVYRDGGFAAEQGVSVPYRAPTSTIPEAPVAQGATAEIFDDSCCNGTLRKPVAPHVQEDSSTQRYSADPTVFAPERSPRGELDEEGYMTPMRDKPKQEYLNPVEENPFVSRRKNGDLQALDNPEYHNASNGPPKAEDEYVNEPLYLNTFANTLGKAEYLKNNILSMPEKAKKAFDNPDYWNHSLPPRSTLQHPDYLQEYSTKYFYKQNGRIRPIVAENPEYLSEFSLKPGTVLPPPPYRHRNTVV
UniProt P21860, whole entry, looked up: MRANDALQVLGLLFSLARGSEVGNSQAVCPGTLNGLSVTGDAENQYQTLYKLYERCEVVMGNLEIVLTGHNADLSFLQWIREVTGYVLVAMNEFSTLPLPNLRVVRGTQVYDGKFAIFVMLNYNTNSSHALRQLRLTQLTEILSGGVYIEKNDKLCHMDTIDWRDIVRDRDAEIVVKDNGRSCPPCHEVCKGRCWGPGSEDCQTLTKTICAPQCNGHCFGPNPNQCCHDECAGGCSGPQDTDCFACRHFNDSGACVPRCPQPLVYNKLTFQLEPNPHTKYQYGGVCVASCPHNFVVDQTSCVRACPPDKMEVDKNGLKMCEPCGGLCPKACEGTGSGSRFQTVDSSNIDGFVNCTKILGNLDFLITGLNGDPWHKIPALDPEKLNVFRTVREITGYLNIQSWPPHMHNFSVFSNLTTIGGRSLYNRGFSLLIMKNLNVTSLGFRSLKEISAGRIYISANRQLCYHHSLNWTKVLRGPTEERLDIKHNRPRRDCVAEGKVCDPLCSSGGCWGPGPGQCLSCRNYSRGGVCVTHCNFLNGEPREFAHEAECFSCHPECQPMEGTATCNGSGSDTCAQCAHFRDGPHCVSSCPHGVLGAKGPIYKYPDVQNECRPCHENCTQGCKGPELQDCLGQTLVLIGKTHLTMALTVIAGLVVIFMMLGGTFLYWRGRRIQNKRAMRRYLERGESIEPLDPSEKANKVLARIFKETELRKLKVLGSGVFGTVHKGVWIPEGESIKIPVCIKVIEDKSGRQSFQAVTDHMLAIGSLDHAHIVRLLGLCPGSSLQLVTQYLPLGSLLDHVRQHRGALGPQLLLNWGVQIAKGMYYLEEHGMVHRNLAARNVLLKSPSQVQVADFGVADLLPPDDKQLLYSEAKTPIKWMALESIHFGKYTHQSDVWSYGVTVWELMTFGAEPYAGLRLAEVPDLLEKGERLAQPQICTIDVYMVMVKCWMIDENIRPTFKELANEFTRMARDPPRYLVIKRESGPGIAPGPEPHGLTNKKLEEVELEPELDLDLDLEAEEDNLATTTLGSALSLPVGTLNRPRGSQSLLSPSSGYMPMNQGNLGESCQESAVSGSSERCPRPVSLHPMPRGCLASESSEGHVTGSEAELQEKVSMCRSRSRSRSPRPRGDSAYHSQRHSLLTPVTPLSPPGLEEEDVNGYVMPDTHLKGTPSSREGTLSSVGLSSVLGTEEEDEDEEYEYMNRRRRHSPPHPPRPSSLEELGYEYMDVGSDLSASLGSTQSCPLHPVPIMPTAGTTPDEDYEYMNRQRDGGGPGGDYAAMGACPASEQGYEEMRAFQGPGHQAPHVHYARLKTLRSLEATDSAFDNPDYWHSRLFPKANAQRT

Structures are written as SMILES.

Assay [1] is filed under the species Homo sapiens. In words: Selectivity ratio of IC50 for human recombinant VEGFR1 to IC50 for human recombinant VEGFR2.
The species named for assay [2] is Homo sapiens. Description: Selectivity ratio of IC50 for Flt3 (unknown origin) to IC50 for human recombinant VEGFR2.
The species entered for assay [3] is Homo sapiens. Description: Selectivity electivity ratio of IC50 for human recombinant RET to IC50 for human recombinant VEGFR2.
The species named for assay [4] is Homo sapiens. Description: Selectivity ratio of IC50 for human recombinant PDGFRalpha to IC50 for human recombinant VEGFR2.
Assay [5] is filed under the species Homo sapiens. Description: Selectivity ratio of IC50 for human recombinant PDGFRbeta to IC50 for human recombinant VEGFR2.
Assay [6] concerns the target T1, Epidermal growth factor receptor (Homo sapiens) (UniProt P04626+P00533+Q15303+P21860). Description: Selectivity ratio of IC50 for wild type human recombinant EGFR to IC50 for human recombinant VEGFR2. The assay is classed as protein assay.
The species entered for assay [7] is Homo sapiens. Description: Selectivity ratio of IC50 for human recombinant ErbB2 to IC50 for human recombinant VEGFR2.
Assay [8] is filed under the species Homo sapiens. In words: Selectivity ratio of IC50 for human recombinant ErbB4 to IC50 for human recombinant VEGFR2.
In assay [9] the target is T1, Epidermal growth factor receptor (Homo sapiens). In words: Selectivity ratio of IC50 for human recombinant EGFR T790M/L858R mutant to IC50 for human recombinant VEGFR2. Type of assay: protein assay.
For assay [10], the species on record is Homo sapiens. In words: Selectivity ratio of IC50 for c-Src (unknown origin) to IC50 for human recombinant VEGFR2.
Assay [11] is filed under the species Homo sapiens. In words: Selectivity ratio of IC50 for human recombinant Abl to IC50 for human recombinant VEGFR2.
Assay [12] is filed under the species Homo sapiens. Description: Selectivity ratio of IC50 for human recombinant EPHA2 to IC50 for human recombinant VEGFR2.
The species named for assay [13] is Homo sapiens. Description: Selectivity ratio of IC50 for human recombinant IGF1R to IC50 for human recombinant VEGFR2.
The species entered for assay [14] is Homo sapiens. Description: Selectivity ratio of IC50 for human recombinant FGFR1 to IC50 for human recombinant VEGFR2.

For `CS(=O)(=O)Cc1cccc(Nc2nccc(Oc3ccc4c(C(=O)Nc5ccccc5)cccc4c3)n2)c1`, the Ratio IC50 was 18.6 in the assay listed under Homo sapiens [1]; over 20000 in the assay filed under Homo sapiens [2]; 118 in the assay listed under Homo sapiens [3]; over 20000 in the assay filed under Homo sapiens [4]; over 20000 in the assay filed under Homo sapiens [5]; over 20000 in assay [6]. Besides, the Ratio IC50 (in the assay filed under Homo sapiens [7]; in the assay filed under Homo sapiens [8]; in assay [9]; in the assay filed under Homo sapiens [10]; in the assay listed under Homo sapiens [11]; in the assay listed under Homo sapiens [12]) was over 20000 throughout. For the same compound, the Ratio IC50 in the assay listed under Homo sapiens [13] and in the assay listed under Homo sapiens [14] was over 20000 each time.
